Measured values taken from patent US6989362B1, “Methods of treating dopamine dysregulation using agents that regulate phosphorylation/dephosphorylation in dopamine signaling” (The Rockefeller University, priority 1999, dated 2006).

Tested on: Cdk5
Experiment: Cocaine-induced locomotor activity with intra-accumbens infusion of Cdk5 inhibitors
Type: in vivo, rat
Details: rats

**Q.** For CC[C@H](CO)Nc1nc(NCc2ccccc2)c2ncn(C(C)C)c2n1 [roscovitine], which locomotor behavior is on record?
**A.** increases

**Q.** And the “locomotor effects of repeated cocaine exposures” value (daily intra-accumbens 40 nmol/0.5 μl, cocaine 15 mg/kg i.p., 5 days)?
**A.** markedly potentiated

**Q.** What about the “locomotor responses to initial cocaine administration” value (intra-accumbens 40 nmol/0.5 μl, cocaine 15 mg/kg i.p.) of the same compound?
**A.** did not significantly affect
